According to patent EP1903056A2:
Each block holds one binder with its values, some of them ahead of it.

How the values were obtained:
Settings in all cases: remark: other sources report otherwise
HLA-B*5401 (human) [1] = assay: competition vs 125I probe peptide, purified HLA
HLA-B*0702 (human) [2] = assay: competition vs 125I probe peptide, purified HLA
HLA-B*5301 (human) [3] = assay: competition vs 125I probe peptide, purified HLA
HLA-B*4001 (human) [4] = assay: competitive inhibition of labeled reference peptide binding to purified HLA
HLA-B*4501 (human) [5] = assay: as above
HLA-A*0202 (human) = assay: competitive inhibition, purified HLA
HLA-B*3501 (human) [6] = assay: competition vs 125I probe peptide, purified HLA
HLA-B*5101 (human) [7] = assay: competition vs 125I probe peptide, purified HLA
HLA-B*1801 (human) [8] = assay: competition binding assay, purified HLA class I
HLA-B*4002 (human) [9] = assay: competition binding assay, purified HLA class I
HLA-B*4402 (human) [10] = assay: competition binding assay, purified HLA class I
HLA-B*4403 (human) [11] = assay: competition binding assay, purified HLA class I
HLA-B*4001 (human) [12] = assay: competition binding assay, purified HLA class I
HLA-B*4501 (human) [13] = assay: competition binding assay, purified HLA class I
HLA-B*3501 (human) [14] = assay: competition with 125I-B35con2, purified HLA
HLA-B*5101 (human) [15] = assay: competition with 125I-B35con2, purified HLA
HLA-B*0702 (human) [16] = assay: competition with 125I-A*0201 signal sequence 5-13a.Y7, purified HLA
HLA-B*1801 (human) [17] = assay: competitive inhibition of labeled reference peptide binding to purified HLA
HLA-B*4402 (human) [18] = assay: as above
HLA-B*4002 (human) [19] = assay: as above
HLA-B*4403 (human) [20] = assay: as above
HLA-B*4403 (human) [21] = assay: competitive inhibition of labelled peptide binding to purified HLA
HLA-B*4501 (human) [22] = assay: as above
HLA-A*0101 (human) = assay: competition with 125I-J chain peptide, purified HLA
HLA-A*3301 (human) [23] = assay: inhibition of 125I-HBV 141.Y7 binding to purified HLA
HLA-A*0301 (human) = assay: competition vs 125I probe peptide, purified HLA
HLA-A*3301 (human) [24] = assay: competition vs 125I probe peptide, purified HLA
HLA-A*2402 (human) = assay: competition with 125I-A24con, purified HLA
HLA-A*1101 (human) = assay: inhibition of 125I-A3con binding to purified HLA
HLA-A*6801 (human) = assay: inhibition of 125I-A3con binding to purified HLA
HLA-B*5301 (human) [25] = assay: competition with 125I-B35con2, purified HLA
HLA-B*5401 (human) [26] = assay: competition with 125I-B35con2, purified HLA

B1: CEA.58 (peptide)
peptide: LPQHLFGYSW
- IC50 (HLA-B*5401 (human) [1]): 4.35 µM

B4: Her2/neu.48 (peptide)
peptide: HLYQGCQVV
- IC50 (HLA-A*0202 (human)): 307 nM

B6: CEA.13 (peptide)
peptide: IPWQRLLLTA
- IC50 (HLA-B*5101 (human) [7]): 2120 nM
- IC50 (HLA-B*5301 (human) [3]): 2660 nM

B8: GEPHISY (MAGE2 position 295, 7-mer) (peptide)
peptide: GEPHISY
- IC50 (HLA-B*1801 (human) [8]): 8830 nM
- IC50 (HLA-B*4002 (human) [9]): 6.72 µM
- IC50 (HLA-B*4403 (human) [11]): 272 nM

B9: BBBGPSTFPDL (MAGE3 position 91, 11-mer) (peptide)
peptide: EEEGPSTFPDL
- IC50 (HLA-B*1801 (human) [8]): 935 nM
- IC50 (HLA-B*4001 (human) [12]): 431 nM
- IC50 (HLA-B*4002 (human) [9]): 2.12 µM
- IC50 (HLA-B*4402 (human) [10]): 2680 nM
- IC50 (HLA-B*4403 (human) [11]): 102 nM
- IC50 (HLA-B*4501 (human) [13]): 158 nM

B10: CEA.102 YPNASLLI (peptide)
peptide: YPNASLLI
- IC50 (HLA-B*3501 (human) [14]): 514 nM
- IC50 (HLA-B*5101 (human) [15]): 8.1 nM
- IC50 (HLA-B*0702 (human) [16]): 196 nM

B11: CEA.13I10 (peptide)
peptide: IPWQRLLLTI
- IC50 (HLA-B*5301 (human) [3]): 291 nM

B14: CEA.102 (peptide)
peptide: YPNASLLI
- IC50 (HLA-B*0702 (human) [2]): 196 nM
- IC50 (HLA-B*3501 (human) [6]): 514 nM
- IC50 (HLA-B*5101 (human) [7]): 8.1 nM

B16: Her2/neu position 285, 12-mer (peptide)
peptide: PEGRYTFGASCV
- IC50 (HLA-B*4403 (human) [21]): 348 nM
- IC50 (HLA-B*4501 (human) [22]): 356 nM

B18: CEA.616 … (peptide)
peptide: HSASNPSPQY
- IC50 (HLA-A*0101 (human)): 74 nM

B20: CEA.554 (peptide)
peptide: RTLTLFNVTR
- IC50 (HLA-A*3301 (human) [23]): 1.61 µM

B21: Her2/neu.669 (10-mer) (peptide)
peptide: VVFGILIKRR
- IC50 (HLA-A*0301 (human)): 3.67 µM
- IC50 (HLA-A*3301 (human) [24]): 193 nM

B22: CEA.58I10 (peptide)
peptide: LPQHLFGYSI
- IC50 (HLA-B*5101 (human) [7]): 262 nM

B26: CEA.554.V2 (peptide)
peptide: RVLTLFNVTR
- IC50 (HLA-A*1101 (human)): 94 nM
- IC50 (HLA-A*6801 (human)): 42 nM
- IC50 (HLA-A*3301 (human) [23]): 7.63 µM

B27: GEYFRLQI (p53, position 325, 8-mer) (peptide)
peptide: GEYFTLQI
- IC50 (HLA-B*1801 (human) [17]): 7770 nM
- IC50 (HLA-B*4402 (human) [18]): 3.51 µM

More lines, now with the values ahead:

- IC50 (HLA-B*0702 (human) [2]): 275 nM
- IC50 (HLA-B*5301 (human) [3]): 291 nM
B2: p53.84.I8 (peptide)
peptide: APAPAPSI

- IC50 (HLA-B*4001 (human) [4]): 2.04 µM
- IC50 (HLA-B*4501 (human) [5]): 1.87 µM
B3: … (p53, position 270, 10-mer) (peptide)
peptide: FEVRVCACPG

- IC50 (HLA-B*3501 (human) [6]): 3270 nM
B5: p53.84 (peptide)
peptide: APAPAPSW

- IC50 (HLA-B*1801 (human) [8]): 841 nM
- IC50 (HLA-B*4002 (human) [9]): 16.1 µM
- IC50 (HLA-B*4402 (human) [10]): 324 nM
- IC50 (HLA-B*4403 (human) [11]): 529 nM
B7: … (MAGE3 position 90, 9-mer) (peptide)
peptide: QEEEGPSTF

- IC50 (HLA-B*1801 (human) [17]): 1120 nM
- IC50 (HLA-B*4402 (human) [18]): 2.03 µM
- IC50 (HLA-B*4501 (human) [5]): 13.4 µM
B12: … (p53, position 179, 9-mer) (peptide)
peptide: HERCSDSDG

- IC50 (HLA-B*4001 (human) [4]): 3.89 µM
- IC50 (HLA-B*4002 (human) [19]): 6.64 µM
- IC50 (HLA-B*4402 (human) [18]): 4.27 µM
- IC50 (HLA-B*4403 (human) [20]): 1580 nM
B13: … (p53, position 345, 9-mer) (peptide)
peptide: NEALELKDA

- IC50 (HLA-B*5101 (human) [7]): 229 nM
- IC50 (HLA-B*5301 (human) [3]): 155 nM
B15: Her2/neu.1214 (…) (peptide)
peptide: SPAFDNLYI

- IC50 (HLA-B*4001 (human) [4]): 18.7 µM
- IC50 (HLA-B*4002 (human) [19]): 3.66 µM
- IC50 (HLA-B*4402 (human) [18]): 5.13 µM
- IC50 (HLA-B*4501 (human) [5]): 1.99 µM
B17: … (p53, position 348, 9-mer) (peptide)
peptide: LELKDAQAG

- IC50 (HLA-B*1801 (human) [17]): 1440 nM
- IC50 (HLA-B*4402 (human) [18]): 10.1 µM
- IC50 (HLA-B*4501 (human) [5]): 13.5 µM
B19: … (p53, position 203, 9-mer) (peptide)
peptide: VEYLDDRNT
modifications: not checked

- IC50 (HLA-A*2402 (human)): 240 nM
B23: MAGE3.195 … (peptide)
peptide: IMPKAGLLII

- IC50 (HLA-B*4001 (human) [4]): 17.1 µM
- IC50 (HLA-B*4402 (human) [18]): 3.19 µM
- IC50 (HLA-B*4403 (human) [20]): 236 nM
B24: … (p53, position 10, 9-mer) (peptide)
peptide: VEPPLSQET

- IC50 (HLA-B*4002 (human) [19]): 2.77 µM
- IC50 (HLA-B*4402 (human) [18]): 1.86 µM
B25: … (p53, position 257, 9-mer) (peptide)
peptide: LEDSSGNLL

- IC50 (HLA-B*3501 (human) [14]): 2400 nM
- IC50 (HLA-B*5101 (human) [15]): 62 nM
- IC50 (HLA-B*5301 (human) [25]): 176 nM
- IC50 (HLA-B*5401 (human) [26]): 102 nM
- IC50 (HLA-B*0702 (human) [16]): 324 nM
B28: MAGE3.196.I10 … (peptide)
peptide: MPKAGLLIII

- IC50 (HLA-B*4002 (human) [19]): 4.58 µM
- IC50 (HLA-B*4402 (human) [18]): 6.45 µM
B29: … (p53, position 61, 9-mer) (peptide)
peptide: DEAPRMPEA
